By UniProt entry, the sequences of proteins in these tests, tags left out.
Serine/threonine-protein kinase PLK1 (Homo sapiens), P53350, UniProt P53350, whole entry, looked up: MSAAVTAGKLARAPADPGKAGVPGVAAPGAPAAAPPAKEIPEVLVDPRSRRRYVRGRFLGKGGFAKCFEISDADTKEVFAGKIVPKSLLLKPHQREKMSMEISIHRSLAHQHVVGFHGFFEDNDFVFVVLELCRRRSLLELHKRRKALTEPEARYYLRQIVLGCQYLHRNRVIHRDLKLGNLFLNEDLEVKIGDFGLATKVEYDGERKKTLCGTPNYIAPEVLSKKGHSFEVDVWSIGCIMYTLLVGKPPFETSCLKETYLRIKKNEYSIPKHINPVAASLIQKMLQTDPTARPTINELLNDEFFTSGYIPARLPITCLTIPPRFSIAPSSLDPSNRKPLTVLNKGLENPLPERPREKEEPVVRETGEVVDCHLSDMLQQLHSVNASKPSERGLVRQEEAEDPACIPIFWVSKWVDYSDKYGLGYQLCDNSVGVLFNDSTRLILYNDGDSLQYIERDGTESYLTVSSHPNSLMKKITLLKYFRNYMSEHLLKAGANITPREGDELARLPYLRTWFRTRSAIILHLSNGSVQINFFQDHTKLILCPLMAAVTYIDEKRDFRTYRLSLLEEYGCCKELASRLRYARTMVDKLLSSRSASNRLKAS
Histone acetyltransferase KAT2A (Homo sapiens), Q92830, UniProt Q92830, whole entry, looked up: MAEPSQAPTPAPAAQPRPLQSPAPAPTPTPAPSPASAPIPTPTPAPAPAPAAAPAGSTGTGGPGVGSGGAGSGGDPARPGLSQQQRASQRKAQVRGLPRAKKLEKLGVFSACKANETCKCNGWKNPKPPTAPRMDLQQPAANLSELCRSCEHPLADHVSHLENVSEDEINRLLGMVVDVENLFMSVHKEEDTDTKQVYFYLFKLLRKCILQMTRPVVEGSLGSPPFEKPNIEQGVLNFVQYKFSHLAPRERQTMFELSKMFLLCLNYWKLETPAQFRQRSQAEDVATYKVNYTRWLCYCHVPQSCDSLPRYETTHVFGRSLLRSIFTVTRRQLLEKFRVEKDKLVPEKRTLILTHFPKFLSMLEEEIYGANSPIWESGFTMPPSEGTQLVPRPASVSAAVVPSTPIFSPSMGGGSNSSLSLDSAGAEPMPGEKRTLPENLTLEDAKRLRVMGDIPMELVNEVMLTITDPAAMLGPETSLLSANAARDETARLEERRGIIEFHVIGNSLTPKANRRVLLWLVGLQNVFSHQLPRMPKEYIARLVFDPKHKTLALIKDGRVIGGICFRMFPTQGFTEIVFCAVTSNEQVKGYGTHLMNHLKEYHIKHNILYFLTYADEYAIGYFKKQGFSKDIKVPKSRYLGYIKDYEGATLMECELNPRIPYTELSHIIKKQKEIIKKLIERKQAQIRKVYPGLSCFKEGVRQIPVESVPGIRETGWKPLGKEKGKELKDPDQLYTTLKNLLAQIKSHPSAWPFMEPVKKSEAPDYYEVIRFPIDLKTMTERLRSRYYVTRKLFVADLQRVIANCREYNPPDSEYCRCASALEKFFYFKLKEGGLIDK

# Source: PubChem BioAssay
# PLK1 PBD inh – qHTS for Inhibitors of PLK1-PDB (polo-like kinase 1 - polo-box domain): Primary Screen | Serine/threonine-protein kinase PLK1 (Homo sapiens), P53350 | AID 720504, 2013 | Potency, µM, without a hit: max response, negative = inhibition, most hits filed as inhibitors | 2.8% of 360,000 active | Plk1 PBD binding of FITC phosphopeptide, fluorescence polarization; note: potency is the fitted concentration of half-maximal effect; series mostly up to about 57 µM; % is set by controls: 0 for no effect and ±100 for the full control effect; nearly all actives have a fitted effect of over 65% in size
# Rango release inh – qHTS Assay for Inhibitors of RanGTP induced Rango (Ran-regulated importin-beta cargo) - Importin beta complex dissociation | Snurportin-1 (Homo sapiens) + GTP-binding nuclear protein Ran (Homo sapiens) + Importin … | Biochemical FRET Rango-importin beta, RanGTP-induced dissociation | Potency, µM (top dose mostly 46.1 µM), inactives show top-dose activity change, negative = inhibition | 0.071% of 340,000 active; calls by dose curve; note: potency is the fitted concentration of half-maximal effect; % of control where 0% means no effect; nearly all actives have a fitted effect of over 45% in size
#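 Compounds preincubate 5 min with complex of recombinant Rango and importin beta in PBS with 1 mM DTT. Ran (0.6 uM) loaded with 2 mM GTP plus 0.2 uM RCC1 starts dissociation; FRET is recorded 45 min later.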
# PI5P4Ka inh – qHTS for Inhibitors of phosphatidylinositol 5-phosphate 4-kinase (PI5P4K); PI5P4Kalpha enzyme, ADP-Glo luminescence, 60 min; active compounds read low; Phosphatidylinositol 5-phosphate 4-kinase type-2 alpha (Homo sapiens), P48426; max response, %; 1.2% of 330,000 active; active = max response of -50% or lower; inconclusive = between -30% and -50%; inactive = -30% or higher; note: value at the top dose of about 77 µM; % is set by controls: 0 for no effect and ±100 for the full control effect
#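 Compounds were pin-transferred onto PI5P4Kalpha and substrate in HEPES pH 7.4 buffer with EGTA, CHAPS and 5% DMSO. ATP (5 microM final) started the reaction, which ran 60 minutes at room temperature before ADP-Glo detection.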
# VDR inh – Inhibitors of the vitamin D receptor (VDR): qHTS; VDR-SRC2-3 peptide fluorescence polarization, 2 h; Potency, µM, for the others: max response, negative = inhibition, most hits filed as inhibitors; 0.93% of 400,000 active; AID 504847, 2011; note: potency is the fitted concentration of half-maximal effect; % is set by controls: 0 for no effect and ±100 for the full control effect
#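 Two reagent solutions held at 4 deg C in the dark were dispensed, compounds pinned at 23 nl, and the mixture incubated 2 h at room temperature. Read-out: fluorescence polarization of VDR–SRC2-3 peptide binding.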
# GCN5L2 inh – qHTS Assay for Inhibitors of GCN5L2 | Histone acetyltransferase KAT2A (Homo sapiens), Q92830 | AID 504327, 2011 | Potency, µM (titrated, usually from 58.9 µM), without a hit: at the top dose activity change, negative = inhibition, usual class: inhibitors | GCN5L2 HAT assay, ThioGlo1 CoA-SH fluorescence | 0.21% of 390,000 active; note: potency is the fitted concentration of half-maximal effect; % is set by controls: 0 for no effect and ±100 for the full control effect
#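 ThioGlo1-coupled HAT assay: 20nM GCN5L2, 70uM acetyl-CoA, 75uM H3(1-25) peptide, pH 7.5. Fluorescence read at 340/540nm at start and after 20 min at room temperature.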
# Rango complex inh – qHTS Assay for Inhibitors of Rango (Ran-regulated importin-beta cargo) - Importin beta complex formation; 0.031% of 340,000 active; Rango CFP/YFP FRET sensor + importin beta, 45 min; Potency, µM (highest dose often 92.2 µM), without a hit: at the highest dose inhibition of complex formation; calls by dose curve;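 note: potency is the fitted concentration of half-maximal effect; 0% = DMSO wells and 100% = buffer wells lacking importin beta; nearly all actives have a fitted effect of over 15% in size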
#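 FRET biosensor Rango (snurportin 1 IBB between N-terminal EYFP and C-terminal Cerulean), 50 nM in PBS/1 mM DTT/0.02% Tween-20/0.1% BSA, preincubated 5 min RT with compound; 0.125 microM importin beta added, 45 min RT, CFP/YFP FRET ratio read.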
# * hit, by the source's call; ? = inconclusive; . = no result given. Only some compounds are listed: those with a hit (about 3.6% of all), similar ones and a draw of the others. Unless noted, calls come from the whole dose curve; as a rule, active = well fitted curve in the direction sought with a large enough effect; inconclusive = small, poorly fitted or top-dose-only effect, or another doubt; inactive = no such curve, though single readings can be large; an effect the other way counts as inactive or inconclusive.
# Every second line gives: PLK1 PBD inh	Rango release inh	PI5P4Ka inh	VDR inh	GCN5L2 inh	Rango complex inh
CSc1ccc(S(=O)(=O)NCC(=O)OC(C)C(=O)NCc2ccccc2)cc1[N+](=O)[O-] (stereo unspecified)
→ -7.4%	21.3%	3.9	-6.8%	0.5%	-0.8%
CC1CCC(NC(=O)COC(=O)CSc2ccc(C(N)=O)cc2[N+](=O)[O-])CC1 (stereo unspecified)
→ -28.0%	4.1%	0.6	-1.8%	-0.4%	5.2%
NC(=O)c1ccc(SCC(=O)OCC(=O)NC2CCCCCCC2)c([N+](=O)[O-])c1
→ 23.8µM*	9.2%	?	-17.9%	-13.5%	-0.6%
CCN(C(=O)COC(=O)CSc1ccc([N+](=O)[O-])cc1)C1CCS(=O)(=O)C1 (stereo unspecified)
→ 7.52µM*	-0.5%	-26.3	?	-15.8%	3.0%
Cc1ccccc1CN(C)C(=O)COC(=O)CSc1ccc([N+](=O)[O-])cc1
→ -19.7%	-11.5%	-2.4	-5.4%	-23.6%	-0.2%
Cc1ccc(SCC(=O)OCC(=O)NC2CCCCCCC2)cc1
→ -1.5%	-10.8%	14.2	-3.9%	0.9%	-3.7%
Cc1ccc(CN(C)C(=O)COC(=O)CSc2ccc([N+](=O)[O-])cc2)cc1
→ 13.4µM*	-8.0%	-24.6	?	-6.4%	-0.5%
O=C(COC(=O)CSc1ccc([N+](=O)[O-])cc1)NC1CCCCCCC1
→ 23.8µM*	2.3%	?	?	-5.0%	-4.3%
CC(=O)c1ccc(N2C(=O)C3C(C2=O)C(C(=O)c2ccc(Cl)cc2)N2CCCC32)cc1 (stereo unspecified)
→ 10.6µM*	?	-53.7*	-17.2%	-16.8%	?
CCN(c1ccccc1)S(=O)(=O)c1csc(C(N)=O)c1
→ 26.7µM*	-19.4%	-5.3	-15.9%	-5.0%	-4.0%

# Complete entries as entered above.
# CC1CCC(NC(=O)COC(=O)CSc2ccc(C(N)=O)cc2[N+](=O)[O-])CC1 (stereo unspecified) is listed as PLK1 PBD inh = -28.0%; Rango release inh = 4.1%; PI5P4Ka inh = 0.6; VDR inh = -1.8%; GCN5L2 inh = -0.4%; Rango complex inh = 5.2%
# NC(=O)c1ccc(SCC(=O)OCC(=O)NC2CCCCCCC2)c([N+](=O)[O-])c1 is listed as PLK1 PBD inh = 23.8µM*; Rango release inh = 9.2%; PI5P4Ka inh = ?; VDR inh = -17.9%; GCN5L2 inh = -13.5%; Rango complex inh = -0.6%

# Following part.
# Every second line gives: PLK1 PBD inh	Rango release inh	PI5P4Ka inh	VDR inh	GCN5L2 inh	Rango complex inh
CCCCC1CCC(C(=O)N2CC(=O)Nc3ccc(Cl)cc3C2c2ccc(F)cc2)CC1 (stereo unspecified)
→ .	.	.	3.2%	-16.9%	.
O=c1c2c3c(sc2n2cnnc2n1-c1ccccc1)N(Cc1ccccc1)CCC3
→ 29.9µM*	-26.7%	-20.5	?	2.8%	?
C[C@@H](C1[C@@H](O)CC2C3C=CC4C[C@@H](O)CC[C@]4(C)[C@H]3CC[C@@]21C)[C@@H]1CCCCN1 (stereo partly specified)
→ .	.	.	-11.3%	.	.
Cc1cccc(OC(=O)n2c(=S)oc3cc(Cl)ccc32)c1
→ 29.9µM*	12.8%	-23.3	4.8%	22.8%	-0.8%
O=C(NCc1ccc(Cl)cc1)C1CCN(S(=O)(=O)Cc2ccccc2)CC1
→ .	.	.	14.9%	-2.1%	.
CCOC(=O)c1cc2c(=O)n3ccccc3nc2n(CCCOC)c1=NC(=O)c1cc2ccccc2o1
→ .	.	.	-8.3%	-1.9%	.
CS(=O)(=O)NCCn1ccc2ccccc21
→ 29.9µM*	-9.6%	-16.6	-10.8%	-0.1%	0.3%
Cc1nn(-c2ccccc2)c2c1N(CCCC(=O)NCc1ccc(OC(C)C)cc1)C(=O)CS2
→ .	.	.	12.8%	-4.2%	.
Cc1ccc(NC(=O)N2CCC(CN3CCCC3)CC2)c(C)c1
→ .	.	.	3.3%	-0.2%	.
Cc1ccc(C(=O)O)cc1N=Cc1cc(Br)cc(Br)c1O
→ ?	?	-55.8*	-16.7%	-5.3%	?

# Of the compounds above, these contain four or more nitrogen atoms:
# Every second line gives: PLK1 PBD inh	Rango release inh	PI5P4Ka inh	VDR inh	GCN5L2 inh	Rango complex inh
O=c1c2c3c(sc2n2cnnc2n1-c1ccccc1)N(Cc1ccccc1)CCC3
→ 29.9µM*	-26.7%	-20.5	?	2.8%	?
CCOC(=O)c1cc2c(=O)n3ccccc3nc2n(CCCOC)c1=NC(=O)c1cc2ccccc2o1
→ .	.	.	-8.3%	-1.9%	.
Cc1nn(-c2ccccc2)c2c1N(CCCC(=O)NCc1ccc(OC(C)C)cc1)C(=O)CS2
→ .	.	.	12.8%	-4.2%	.

# More records:
# Every second line gives: PLK1 PBD inh	Rango release inh	PI5P4Ka inh	VDR inh	GCN5L2 inh	Rango complex inh
CC(=O)Nc1ccc(C(=O)N/N=C/c2cc(Br)cc(Br)c2O)cc1
→ ?	?	-10.4	2.6%	0.9%	?
CC1CCN(c2nc(-c3ccco3)c3c(c2C#N)CC(C)(C)OC3)CC1
→ ?	?	?	50.1µM*	-6.1%	?
CCc1nc(N2CCN(C(=O)c3ccccc3)CC2)c(C#N)c2c1COC(C)(C)C2
→ 23.8µM*	-4.0%	2.2	1.5%	-2.2%	?
CC1(C)Cc2c(C#N)c(OCC(=O)c3ccc(Cl)cc3)nc(-c3ccoc3)c2CO1
→ -21.0%	8.0%	3.5	33.2%	-4.8%	1.0%
CC1(C)Cc2c(C#N)c(N3CCN(C(=O)c4ccccc4)CC3)nc(Cc3ccccc3)c2CO1
→ -7.4%	2.5%	3.0	5.4%	0.0%	2.1%
CC1(C)Cc2c(C#N)c(OCC(=O)c3ccccc3)nc(-c3ccoc3)c2CO1
→ 26.7µM*	4.3%	-8.6	?	-3.4%	0.6%
CCOC(=O)c1cc(S(=O)(=O)Nc2ccc(OC)c(Cl)c2)[nH]n1
→ .	.	.	23.9%	-18.6%	.
Cc1ccccc1Cn1c(SCc2ccc(C(=O)NC(C)c3ccccc3)cc2)nc2ccncc21 (stereo unspecified)
→ .	.	.	17.5%	-6.6%	.
CCCCCCCCCCCCCCCC[N+](C)(C)CCN(Cc1ccc(OC)cc1)c1ncccn1
→ -21.3%	5.9%	?	18.3%	-6.6%	65.1µM*
COc1ccc(CN2C(=O)c3ccccc3C2C(=O)NC2CCC(C)CC2)c(OC)c1 (stereo unspecified)
→ 23.8µM*	33.8%	-0.5	-12.9%	-6.3%	3.9%

# Next section.
Structure,PLK1 PBD inh,Rango release inh,PI5P4Ka inh,VDR inh,GCN5L2 inh,Rango complex inh
COc1ccc(CN2C(=O)c3ccccc3C2C(=O)NC2CCCC2)c(OC)c1 (stereo unspecified),-4.1%,10.7%,.,-8.3%,-1.7%,3.2%
NCCNCCNCCN,-10.2%,-13.4%,7.3,10.1%,-0.1%,-0.4%
NCCNCCN,.,.,.,15.8µM*,11.1%,.
CC(C)N(C)CCOC(=O)c1ccccc1Br,23.8µM*,10.8%,-15.6,?,-0.4%,-4.2%
CC(CCc1ccccc1)NC(=O)COC(=O)c1ccccc1Br (stereo unspecified),-5.6%,21.7%,-0.3,-14.4%,-4.2%,3.3%
CCOc1ccccc1NC(=O)c1c(NC(=O)C(C)Oc2ccc(Cl)cc2)sc2c1CCCCC2 (stereo unspecified),.,.,.,-5.1%,-5.9%,.
CC(C)Oc1ccc(C(=O)OC(C)C(=O)NC2CCCCC2C)cc1 (stereo unspecified),-13.7%,-3.5%,11.5,-9.2%,2.0%,25.9µM*
Cc1ccc(NC(=O)C2CCCN(c3ncnc4onc(C)c34)C2)cc1Cl (stereo unspecified),.,.,.,4.0%,2.9%,.
COc1ccccc1NC(=O)CSc1ncc(CO)n1Cc1ccc(F)cc1,9.47µM*,-14.6%,-7.9,?,0.1%,-0.5%
Cc1cc(NC(=O)CSc2ncc(CO)n2Cc2ccc(F)cc2)no1,-11.2%,?,8.1,11.9%,-6.7%,-0.2%
COc1ccccc1NC(=O)CSc1nnnn1-c1ccccc1F,26.7µM*,13.6%,-5.7,-9.2%,-12.3%,5.6%
